Usually inhibition stands for the change of the read-out against control, counted positive when it falls.

This note sets out measurements from PubChem BioAssay AID651800 (The Scripps Research Institute Molecular Screening Center, 2012).

This is a selection; strong and weak results do not stand in their true shares. Active and inactive are the calls of the source. Cut-off read from the data, not from the text of the source: active = inhibition above about 19%; inactive = the rest.

The experiment relates to T-cell receptor (TCR). Put plainly: small molecules blocking TCR binding to CD3 – biochemical, fluorescence, TAMRA-labeled TCR probe, primary screen (AID 651800).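 Note: recombinant mutant TCR 2C K166C tagged with TAMRA read by polarization; 0% = receptor in buffer alone and 100% = receptor with positive control.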 The following applies: at 9.4 µM, active compounds read high.
In the case of `CCC(=O)N(c1ccccc1)C1(COC)CCN(CCn2nnn(CC)c2=O)CC1`, the inhibition was inactive: -10.9%.

Take `CCC(=O)N(c1ccccc1)C1(COC)CCN(CCc2cccs2)CC1`: the inhibition was inactive: 4.41%.
